# Laboratory results as given in PubChem BioAssay AID588358 (NMMLSC, 2011).
# By UniProt entry, the sequences of proteins in these tests, tags left out. Where a name states a change or a piece, a line headed by the entry shows the natural chain unless it says otherwise.
# UniProt P32926: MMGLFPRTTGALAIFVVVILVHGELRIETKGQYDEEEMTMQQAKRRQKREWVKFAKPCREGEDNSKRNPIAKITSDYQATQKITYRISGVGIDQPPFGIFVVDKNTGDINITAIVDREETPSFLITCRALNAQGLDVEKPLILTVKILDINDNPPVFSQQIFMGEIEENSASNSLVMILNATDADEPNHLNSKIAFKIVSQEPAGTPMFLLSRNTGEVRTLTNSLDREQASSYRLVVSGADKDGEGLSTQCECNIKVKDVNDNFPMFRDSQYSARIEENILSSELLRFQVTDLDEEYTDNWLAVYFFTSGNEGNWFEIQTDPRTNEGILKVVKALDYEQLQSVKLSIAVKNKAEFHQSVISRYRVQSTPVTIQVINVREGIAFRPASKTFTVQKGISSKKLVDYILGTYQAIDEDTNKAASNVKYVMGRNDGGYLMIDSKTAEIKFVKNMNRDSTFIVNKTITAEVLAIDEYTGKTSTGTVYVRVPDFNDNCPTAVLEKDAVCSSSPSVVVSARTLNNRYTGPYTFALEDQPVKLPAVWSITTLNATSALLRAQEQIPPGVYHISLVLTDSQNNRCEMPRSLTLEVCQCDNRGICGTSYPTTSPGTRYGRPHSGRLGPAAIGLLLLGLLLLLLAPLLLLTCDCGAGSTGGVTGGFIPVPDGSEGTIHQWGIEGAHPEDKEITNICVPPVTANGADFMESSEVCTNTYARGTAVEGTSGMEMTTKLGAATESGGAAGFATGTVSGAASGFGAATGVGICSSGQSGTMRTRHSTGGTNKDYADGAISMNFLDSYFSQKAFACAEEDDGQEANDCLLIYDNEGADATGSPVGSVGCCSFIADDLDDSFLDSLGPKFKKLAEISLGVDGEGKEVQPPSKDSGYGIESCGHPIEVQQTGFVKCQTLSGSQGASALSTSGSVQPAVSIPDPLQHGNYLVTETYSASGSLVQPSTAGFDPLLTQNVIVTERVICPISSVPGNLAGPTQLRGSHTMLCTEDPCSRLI
# Among all 310,000 compounds or so, about 1,500 (0.48%) were called active. The source calls these results inconclusive, neither active nor inactive.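 The calls were made as follows: active = binding more than 3 SD below its plate's average and above zero; inconclusive = below that plate limit but binding exactly zero; inactive = the rest.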
# Target: Desmoglein-3 (Homo sapiens) (UniProt P32926)
# Assay: blockers of anti-DSG3 scFv binding – biochemical, bead-based, flow cytometry, scFv-GFP, primary screen (AID 588358);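 also: hits lower antibody fragment binding to DSG3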
# Conditions: DSG3-coupled beads, at 10 µM, active compounds read low
row,Compound,binding (percent of control)
1,CCOC(=O)Nc1cccc([As](=O)(O)O)c1,inconclusive: 0%
